The results in this text go back to EP4588921A1, “FREE BASE CRYSTAL FORM OF POLYCYCLIC COMPOUND OF NITROGEN-CONTAINING HETEROCYCLE, AND PREPARATION METHOD THEREFOR” (Jiangsu Hansoh Pharmaceutical Group Co., Ltd., priority 2022, dated 2024).

Chains of the proteins cited; added tags and fusions are not shown.
UniProt O43613, whole entry: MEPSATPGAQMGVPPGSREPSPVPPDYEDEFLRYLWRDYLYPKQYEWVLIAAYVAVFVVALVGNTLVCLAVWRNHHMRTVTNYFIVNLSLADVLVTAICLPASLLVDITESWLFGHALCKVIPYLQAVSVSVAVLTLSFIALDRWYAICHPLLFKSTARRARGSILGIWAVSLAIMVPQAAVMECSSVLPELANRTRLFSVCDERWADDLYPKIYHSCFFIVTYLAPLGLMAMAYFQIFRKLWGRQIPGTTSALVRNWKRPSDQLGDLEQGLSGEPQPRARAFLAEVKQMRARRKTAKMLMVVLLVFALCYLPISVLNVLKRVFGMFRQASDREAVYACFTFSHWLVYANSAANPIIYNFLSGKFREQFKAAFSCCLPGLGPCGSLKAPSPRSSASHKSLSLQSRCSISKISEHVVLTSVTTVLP
UniProt O43614, whole entry: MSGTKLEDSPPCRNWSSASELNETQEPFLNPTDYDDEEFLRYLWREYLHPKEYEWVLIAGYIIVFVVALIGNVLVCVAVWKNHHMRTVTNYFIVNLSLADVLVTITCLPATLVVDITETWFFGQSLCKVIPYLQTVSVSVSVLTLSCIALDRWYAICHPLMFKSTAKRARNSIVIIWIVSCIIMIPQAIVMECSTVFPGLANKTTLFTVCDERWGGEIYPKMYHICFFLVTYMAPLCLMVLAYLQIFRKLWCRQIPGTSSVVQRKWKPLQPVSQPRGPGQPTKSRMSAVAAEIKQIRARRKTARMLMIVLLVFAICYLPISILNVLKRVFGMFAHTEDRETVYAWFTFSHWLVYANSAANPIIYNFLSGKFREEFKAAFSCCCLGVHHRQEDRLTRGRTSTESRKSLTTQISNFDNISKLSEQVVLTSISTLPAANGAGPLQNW

The target in one test is T1, human OX1R (Homo sapiens, UniProt O43613).
T1 construct: expressed in transfected cells; host or cells: CHO-K1
Put plainly: Calcium current (FLIPR) in cells stably expressing OX1 receptor. The format is cell-based. The text has this:
(§1) Test example 1. Determination of the effect of the compounds of the present invention on calcium current in cells stably expressing OX1 and OX2 receptors 1. Experimental objective: The inhibitory effect of the compounds on calcium current activity in CHO-K1/human OX1R and CHO-K1/human OX2R cells was detected. 2. Experimental instruments and reagents 2.1 Instruments: • 384-well cell culture plate (Corning; 3764); • Plate reader FLIPR Tetra (Molecular Device). 2.2 Reagents: • DMEM, high glucose (Gibco: 12100); • Fetal bovine serum (Biosera: FB-1058/500); • P/S (Biosera: XC-A4122); • 5X Matrigel (Corning: 354230); • HBSS (Sigma: H1387); • HEPES (Invitrogen: 15630080); • Fluo-8 AM (AAT Bioquest: 21080); • Probenecid (Sigma: P8761); • Pluronic F-127 (Sigma: P2443-250G); • 1000X Fluo-8 AM (2 mM): Fluo-8 AM was dissolved in DMSO, the mixture was shaken for 1-2 min, sub-packaged and stored at -20°C; • Complete culture medium: DMEM + 10% FBS + 1X P/S; • Cell seeding medium: DMEM + 10% FBS + 1X PS; • Experimental buffer: 1X HBSS + 20 mM HEPES +1 mM Probenecid + 0.025% Pluronic F-127; • 1X Matrigel: 5X Matrigel was diluted with DMEM; • Cell strain: CHO-K1/human OX1R and CHO-K1/human OX2R cell lines. 3. […] The IC50 of the positive compounds and test compounds was determined. […] Experimental data processing method: FLIPR Tetra was used to read and collect the fluorescence signal value (RFU). […]

In a further test the target is T2, human OX2R (Homo sapiens, UniProt O43614).
T2 construct: expressed in transfected cells; host or cells: CHO-K1
Put plainly: Calcium current (FLIPR) in cells stably expressing OX2 receptor. The format is cell-based.
Description: as §1

What is called IC50 is the point on the concentration scale where inhibition reaches its midpoint. As to `Cc1cc(C)nc(N2CC3CN(C(=O)c4c(F)cccc4-n4nccn4)CC3C2)n1` (centres unmarked) [Seltorexant, reference compound], the IC50 at human OX1R stood at 725 nM; on human OX2R it was 26.8 nM.
